Earlier results as cited in patent publication US7297707B2, “Benzothiazolyl derivatives” (Hoffmann-La Roche Inc., priority 2003, dated 2007).

System: wild-type and CB1 receptor knockout mice
Details: wild-type versus CB1 receptor knockout mice; cited from earlier work

Which food intake does the source give for `Cc1c(C(=O)NN2CCCCC2)nn(-c2ccc(Cl)cc2Cl)c1-c1ccc(Cl)cc1` [SR141716A] here?
Its food intake is “reduces food intake in wild-type but not knockout mice”.
